Reference: paper PMC7101356, “Cross-site and cross-platform variability of automated patch clamp assessments of drug effects on human cardiac currents in recombinant cells” (Scientific Reports, 2020)
Read-outs that look alike come from different tables or passages of the source.

Chains of the proteins cited; added tags and fusions are not shown. Lines headed by an entry give the natural chain unless they say otherwise; changes in a name come on top.
UniProt Q13936, whole entry: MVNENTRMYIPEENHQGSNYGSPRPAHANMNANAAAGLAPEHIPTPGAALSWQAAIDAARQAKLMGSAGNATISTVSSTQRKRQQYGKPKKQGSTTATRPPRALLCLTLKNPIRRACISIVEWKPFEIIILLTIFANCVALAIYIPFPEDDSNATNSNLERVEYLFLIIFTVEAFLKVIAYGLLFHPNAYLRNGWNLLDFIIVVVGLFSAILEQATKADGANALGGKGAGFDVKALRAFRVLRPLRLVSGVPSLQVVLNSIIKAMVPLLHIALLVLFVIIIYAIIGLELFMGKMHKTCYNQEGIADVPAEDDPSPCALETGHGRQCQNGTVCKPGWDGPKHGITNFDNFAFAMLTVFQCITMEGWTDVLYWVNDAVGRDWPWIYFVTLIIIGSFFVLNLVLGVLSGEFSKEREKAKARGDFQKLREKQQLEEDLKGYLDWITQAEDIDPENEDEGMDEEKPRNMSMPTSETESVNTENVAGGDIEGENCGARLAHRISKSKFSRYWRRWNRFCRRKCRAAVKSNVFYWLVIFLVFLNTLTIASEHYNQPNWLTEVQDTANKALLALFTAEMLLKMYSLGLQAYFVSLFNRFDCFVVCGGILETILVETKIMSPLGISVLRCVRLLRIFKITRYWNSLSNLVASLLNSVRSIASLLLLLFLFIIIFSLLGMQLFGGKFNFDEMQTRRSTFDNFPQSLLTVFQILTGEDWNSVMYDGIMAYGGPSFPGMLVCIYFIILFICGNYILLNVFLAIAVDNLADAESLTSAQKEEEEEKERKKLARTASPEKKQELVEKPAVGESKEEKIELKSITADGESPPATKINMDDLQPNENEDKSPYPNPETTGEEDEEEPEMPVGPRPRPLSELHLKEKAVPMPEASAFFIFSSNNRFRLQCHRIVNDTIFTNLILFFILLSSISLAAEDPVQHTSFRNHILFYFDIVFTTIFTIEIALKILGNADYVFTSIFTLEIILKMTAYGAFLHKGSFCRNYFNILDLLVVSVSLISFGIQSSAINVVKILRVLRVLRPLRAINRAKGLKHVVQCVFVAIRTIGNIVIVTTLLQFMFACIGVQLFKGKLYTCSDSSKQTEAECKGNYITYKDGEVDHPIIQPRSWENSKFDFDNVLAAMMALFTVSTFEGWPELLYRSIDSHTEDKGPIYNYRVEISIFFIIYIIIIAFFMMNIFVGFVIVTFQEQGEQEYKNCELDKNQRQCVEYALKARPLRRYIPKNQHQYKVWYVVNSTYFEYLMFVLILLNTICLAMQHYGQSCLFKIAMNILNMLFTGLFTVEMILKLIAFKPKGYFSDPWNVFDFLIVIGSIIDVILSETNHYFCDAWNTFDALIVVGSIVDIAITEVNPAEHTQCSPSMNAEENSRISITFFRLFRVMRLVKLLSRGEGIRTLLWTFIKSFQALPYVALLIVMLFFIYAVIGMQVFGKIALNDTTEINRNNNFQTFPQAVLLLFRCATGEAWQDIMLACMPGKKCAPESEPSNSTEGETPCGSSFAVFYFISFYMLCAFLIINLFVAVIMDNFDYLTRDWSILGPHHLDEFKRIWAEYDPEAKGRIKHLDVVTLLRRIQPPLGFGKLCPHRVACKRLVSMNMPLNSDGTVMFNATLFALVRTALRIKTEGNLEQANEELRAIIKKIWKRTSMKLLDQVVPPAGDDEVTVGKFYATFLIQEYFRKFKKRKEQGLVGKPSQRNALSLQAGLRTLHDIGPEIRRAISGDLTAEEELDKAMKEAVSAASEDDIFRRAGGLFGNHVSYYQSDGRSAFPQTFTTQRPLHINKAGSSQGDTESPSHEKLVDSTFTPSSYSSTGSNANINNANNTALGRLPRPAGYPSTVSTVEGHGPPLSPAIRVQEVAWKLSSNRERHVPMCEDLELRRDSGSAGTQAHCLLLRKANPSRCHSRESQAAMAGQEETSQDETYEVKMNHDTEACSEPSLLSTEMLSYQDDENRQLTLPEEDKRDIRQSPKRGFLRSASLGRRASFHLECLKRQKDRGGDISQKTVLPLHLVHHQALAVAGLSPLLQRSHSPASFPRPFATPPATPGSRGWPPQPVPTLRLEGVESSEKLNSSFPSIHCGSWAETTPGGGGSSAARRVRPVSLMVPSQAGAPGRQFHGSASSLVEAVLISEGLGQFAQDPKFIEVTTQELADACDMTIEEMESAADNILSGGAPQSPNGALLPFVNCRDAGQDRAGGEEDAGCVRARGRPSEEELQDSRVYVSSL
UniProt Q12809: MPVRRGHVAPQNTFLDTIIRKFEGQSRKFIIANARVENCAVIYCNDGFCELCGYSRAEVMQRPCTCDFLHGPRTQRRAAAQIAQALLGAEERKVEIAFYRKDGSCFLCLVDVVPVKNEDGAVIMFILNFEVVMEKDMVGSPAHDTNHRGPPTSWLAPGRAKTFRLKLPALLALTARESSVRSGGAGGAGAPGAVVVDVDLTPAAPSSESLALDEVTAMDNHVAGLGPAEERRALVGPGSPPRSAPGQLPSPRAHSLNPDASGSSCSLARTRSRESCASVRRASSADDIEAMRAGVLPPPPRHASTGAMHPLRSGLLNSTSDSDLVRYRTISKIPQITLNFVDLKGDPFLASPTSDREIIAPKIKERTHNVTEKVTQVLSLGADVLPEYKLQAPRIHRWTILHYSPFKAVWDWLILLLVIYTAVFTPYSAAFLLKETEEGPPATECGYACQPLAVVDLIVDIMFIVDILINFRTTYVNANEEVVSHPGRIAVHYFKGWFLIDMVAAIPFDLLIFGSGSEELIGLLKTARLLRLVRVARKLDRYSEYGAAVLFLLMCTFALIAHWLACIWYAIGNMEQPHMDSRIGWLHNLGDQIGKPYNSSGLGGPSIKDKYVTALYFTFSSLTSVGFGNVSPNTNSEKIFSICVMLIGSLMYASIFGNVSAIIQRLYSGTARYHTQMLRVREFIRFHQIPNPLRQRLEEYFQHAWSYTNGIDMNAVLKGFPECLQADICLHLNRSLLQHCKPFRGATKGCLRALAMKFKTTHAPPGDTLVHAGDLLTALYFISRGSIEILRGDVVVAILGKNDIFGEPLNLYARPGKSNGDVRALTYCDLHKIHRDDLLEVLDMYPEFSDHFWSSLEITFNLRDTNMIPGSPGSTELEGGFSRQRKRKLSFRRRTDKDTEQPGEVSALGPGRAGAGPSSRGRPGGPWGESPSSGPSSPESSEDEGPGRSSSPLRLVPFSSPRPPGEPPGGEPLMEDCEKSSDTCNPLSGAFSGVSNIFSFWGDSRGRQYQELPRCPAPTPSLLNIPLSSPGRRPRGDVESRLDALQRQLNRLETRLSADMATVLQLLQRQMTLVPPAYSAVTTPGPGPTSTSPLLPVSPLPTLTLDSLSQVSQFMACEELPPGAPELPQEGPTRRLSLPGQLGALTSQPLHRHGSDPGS

Columns and labels:
hCav1.2 = hCav1.2 (Homo sapiens, UniProt Q13936); experiment: Automated patch clamp, hCav1.2 current block; settings: for IC50: log IC50, half-maximal inhibitory concentration
hERG [1] = target: T1, hERG (Homo sapiens, UniProt Q12809)
hERG [2] = target: T1, hERG; experiment: cell-based
hERG [3] = target: T1, hERG; experiment: Automated patch clamp, hERG current block, Milnes protocol (site s06)
hERG [4] = target: T1, hERG; experiment: in vitro; settings: hERG K+ current inhibition, Mean
hERG [5] = target: T1, hERG; settings: 90 nM, HEK293 cells at 22 °C, manual patch clamp, n = 83 cells; cited from earlier work
[6] = hERG K+ current log IC50, s04_p3, CHO, room temperature

CC(C)COCC(CN(Cc1ccccc1)c1ccccc1)N1CCCC1 (centres unmarked) [bep, bepridil]
IC50 (hCav1.2; site s02_p2, corrected for rundown): 832 nM
IC50 (hCav1.2; site s16_p3): 302 nM
log IC50, half-maximal inhibitory concentration (hCav1.2; site s01_p1): no inh.
log IC50, half-maximal inhibitory concentration (hCav1.2; site s04_p3): no inh.
log IC50, half-maximal inhibitory concentration (hCav1.2; site s06_p4): no inh.
log IC50, half-maximal inhibitory concentration (hCav1.2; site s11_p1): no inh.
log IC50, half-maximal inhibitory concentration (hCav1.2; site s14_p1): no inh.
nH (Hill slope), hERG K+ current inhibition (hERG [1]; […]): 1.66
hERG K+ current nH, Hill slope (hERG [1]; s01_p1, CHO, 23 °C): 1.25
hERG K+ current log IC50 (hERG [1]; s02_p2, HEK293, 22–26 °C): -6.55 log mol/L
hERG K+ current nH, Hill slope (hERG [1]; s02_p2, HEK293, 22–26 °C): 1.41
hERG K+ current nH, Hill slope (hERG [1]; s03_p2, HEK293, room temperature): 1.50
hERG K+ current nH, Hill slope (hERG [1]; s04_p3, CHO, room temperature): 0.99
hERG K+ current nH, Hill slope (hERG [1]; s05_p4, HEK293, 22–24 °C): 1.21
hERG K+ current nH, Hill slope (hERG [1]; s15_p1, HEK293, 22–23 °C): 1.26
hERG K+ current nH, Hill slope (hERG [1]; s16_p3, HEK293, room temperature): 1.29
hERG K+ current nH, Hill slope (hERG [1]; s18_p1, CHO, 35 °C): 1.32
hERG K+ current nH, Hill slope (hERG [1]; s19_p3, CHO, room temperature): 1.10
nH (Hill slope), hERG K+ current inhibition (hERG [1]; site_platform s10_p3): 1.36
nH (Hill slope), hERG K+ current inhibition (hERG [1]; site_platform s11_p1): 1.00
nH (Hill slope), hERG K+ current inhibition (hERG [1]; site_platform s12_p2): 1.27
nH (Hill slope), hERG K+ current inhibition (hERG [1]; site_platform s13_p2): 1.05
nH (Hill slope), hERG K+ current inhibition (hERG [1]; site_platform s14_p1): 0.58
IC50 (hERG [2]; hERG K+ current log IC50, s01_p1, CHO, 23 °C): 107 nM
IC50 (hERG [2]; hERG K+ current log IC50, s03_p2, HEK293, room temperature): 61.7 nM
IC50 (hERG [2]; [6]): 204 nM
IC50 (hERG [2]; hERG K+ current log IC50, s05_p4, HEK293, 22–24 °C): 123 nM
IC50 (hERG [2]; hERG K+ current log IC50, s15_p1, HEK293, 22–23 °C): 63.1 nM
IC50 (hERG [2]; hERG K+ current log IC50, s16_p3, HEK293, room temperature): 229 nM
IC50 (hERG [2]; hERG K+ current log IC50, s18_p1, CHO, 35 °C): 49 nM
IC50 (hERG [2]; hERG K+ current log IC50, s19_p3, CHO, room temperature): 347 nM
IC50 (hERG [2]; log IC50, hERG K+ current inhibition, site_platform s10_p3): 240 nM
IC50 (hERG [2]; log IC50, hERG K+ current inhibition, site_platform s11_p1): 47.9 nM
IC50 (hERG [2]; log IC50, hERG K+ current inhibition, site_platform s12_p2): 182 nM
IC50 (hERG [2]; log IC50, hERG K+ current inhibition, site_platform s13_p2): 209 nM
IC50 (hERG [2]; log IC50, hERG K+ current inhibition, site_platform s14_p1): 46.8 nM
IC50 (hERG [3]): 275 nM
hERG K+ current nH, Hill slope (hERG [3]; s06_p4, HEK293, 22–24 °C, Milnes protocol): 1.48
hERG K+ current inhibition, Mean, at maximal concentration (hERG [3]; s06_p4, HEK293, 22–24 °C, Milnes protocol, max conc [mol/L]: bep 3.00E-07, cpz 3.00E-06, cis 3.00E-07, dil 1.00E-04, dof 1.00E-07, mex 1.00E-04, ond 1.00E-05, qui 1.00E-05, ran 1.00E-04, sot 3.00E-04, ter 3.00E-07, ver 1.00E-06): 56.3%
hERG K+ current inhibition, Mean, at minimal concentration (hERG [3]; s06_p4, HEK293, 22–24 °C, Milnes protocol, min conc [mol/L]: bep 1.00E-08, cpz 1.00E-07, cis 1.00E-09, dil 3.00E-06, dof 1.00E-09, mex 1.00E-06, ond 3.00E-07, qui 1.00E-07, ran 3.00E-06, sot 1.00E-05, ter 1.00E-08, ver 3.00E-08): 3.6%
inhibition at 1e-08 mol/L (hERG [4]; site_platform s12_p2, 1.00E-08 mol/L): 2.3%
inhibition at 1e-08 mol/L (hERG [4]; site_platform s13_p2, 1.00E-08 mol/L): 4.3%
inhibition at 3e-07 mol/L (hERG [4]; recombinant cells expressing hERG, […], 3.00E-07 mol/L): 85.5%
inhibition at 4 min, 3e-07 mol/L (hERG [4]; recombinant cells expressing hERG, site_platform s10_p3, 3.00E-07 mol/L): 59.6%
inhibition at 7 min, 3e-07 mol/L (hERG [4]; recombinant cells expressing hERG, site_platform s11_p1, 3.00E-07 mol/L): 90.8%
inhibition at 3e-07 mol/L (hERG [4]; recombinant cells expressing hERG, site_platform s12_p2, 3.00E-07 mol/L): 66.8%
inhibition at 3e-07 mol/L (hERG [4]; recombinant cells expressing hERG, site_platform s13_p2, 3.00E-07 mol/L): 61.5%
inhibition at 7 min, 3e-07 mol/L (hERG [4]; recombinant cells expressing hERG, site_platform s14_p1, 3.00E-07 mol/L): 79.8%

COc1cc(N)c(Cl)cc1C(=O)NC1CCN(CCCOc2ccc(F)cc2)CC1OC (stereo not drawn) [cis, cisapride]
hERG current inhibition (mean ± SD) (hERG [5]): 83.4 ± 7.7%

Cc1nccn1CC1CCc2c(c3ccccc3n2C)C1=O (centres unmarked) [ond, ondansetron]
IC50 (hERG [2]; [6]): 1200 nM
